In ChEMBL document CHEMBL5674880 (PLoS One, 2018):
pIC50: −log10 of the molar value.

Sequences of proteins named here, by UniProt entry; tags and fusion partners are left off. A change or cut given only in a name is not applied to a line headed by its entry.
UniProt Q9NRG4: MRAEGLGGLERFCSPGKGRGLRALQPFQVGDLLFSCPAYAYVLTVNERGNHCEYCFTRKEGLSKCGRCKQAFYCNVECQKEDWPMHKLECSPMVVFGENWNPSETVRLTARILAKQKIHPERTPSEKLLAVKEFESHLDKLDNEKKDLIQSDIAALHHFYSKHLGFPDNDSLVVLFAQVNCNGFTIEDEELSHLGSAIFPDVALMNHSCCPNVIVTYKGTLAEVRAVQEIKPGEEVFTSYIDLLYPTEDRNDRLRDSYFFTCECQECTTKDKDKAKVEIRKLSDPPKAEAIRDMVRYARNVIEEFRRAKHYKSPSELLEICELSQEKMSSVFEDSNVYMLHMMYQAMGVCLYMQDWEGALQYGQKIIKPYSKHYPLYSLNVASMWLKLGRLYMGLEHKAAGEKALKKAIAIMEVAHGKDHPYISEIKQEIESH

Target: N-lysine methyltransferase SMYD2 (Homo sapiens, UniProt Q9NRG4)
Test: Inhibition of N-terminal 2xc-myc-tagged SMYD2 (unknown origin) transfected in KYSE-150 cells assessed as methylation activity by Western blot analysis
Format: cell-based, KYSE-150 cell line

With `CCN(C(=O)CO)[C@H]1CN(/C(=N\C#N)Nc2cccc(OC(F)F)c2)N=C1c1ccc(Cl)c(Cl)c1` the pIC50 was 7.24.
